## scFv variants of Ab-14 (heavy chain) against a SARS-CoV-2 spike peptide

Reference: Li et al. 2023, doi:10.1038/s41467-023-39022-2. File: FLAb, binding data.

All variants were tested on one target, the spike HR2 peptide PDVDLGDISGINAS (SARS-CoV-2).

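The variants were designed computationally from a first round of random CDR variants and then made and measured. Their group label is 14H_En_Gen (En: ensemble of fine-tuned language models; Gen: genetic algorithm). AlphaSeq pools MATa yeast showing the antibodies with MATalpha yeast showing the peptide. After mating in shaken culture at 30 °C for 16 h, diploids were selected and their barcode pairs sequenced. The ratio of observed to expected reads was calibrated, replicate by replicate, on BCL2-family standards whose Kd was known from biolayer interferometry. The assay was run in six technical replicates.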

Parent: Ab-14, a human scFv built as VH, a 15-residue (Gly4Ser)3 linker, VL. Only the CDRs of the heavy chain vary.
VH: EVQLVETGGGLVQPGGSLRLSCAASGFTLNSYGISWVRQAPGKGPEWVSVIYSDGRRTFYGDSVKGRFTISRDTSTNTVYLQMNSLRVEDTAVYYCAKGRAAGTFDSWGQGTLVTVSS
VL: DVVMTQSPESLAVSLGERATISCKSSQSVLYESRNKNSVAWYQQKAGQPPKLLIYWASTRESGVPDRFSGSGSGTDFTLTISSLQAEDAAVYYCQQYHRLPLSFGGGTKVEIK

Each variant is given by its three heavy chain CDRs, as the data file delimits them; those of the parent are GFTLNSYGIS, VIYSDGRRTFYGDSVK, GRAAGTFDS.
The read-out is the apparent dissociation constant on a log10 scale (nM): the lower, the stronger.
A mean of the replicates is given; it leaves out those without a signal.
An entry "nd" has no value in the source: the pair was not observed among the diploids in that replicate. This suggests poor binding but is not conclusive.

CDR-H1 | CDR-H2 | CDR-H3 | replicates, log10 nM | mean log10 Kd (nM) | signal with controls
GFDLDEYGIS | VIYADGMRTAYSDNVK | GENAGTFDV | 1.31 / nd / 0.64 / 0.78 / 1.68 / 1.37 | 1.15 | 0/18
GFDLDEYGIS | VIYADGMRTAYSDDVK | GEVAGTFDV | -0.14 / -0.30 / -0.16 / -0.52 / -0.15 / 0.05 | -0.20 | 0/18
GFDLNEYGIS | VIYADGVRTFYADSVK | GGNAGTFDV | -0.27 / 0.29 / -0.50 / -0.53 / 0.07 / -0.12 | -0.18 | 0/18
GFDLNEYGIS | VIYADGMRTYYADSVK | GQNAGTFDL | -0.29 / -0.39 / -0.79 / 0.10 / -0.79 / -0.31 | -0.41 | 0/18
GFDLNEYGIS | VIYADGVRKSYADSVK | GENAGTFDV | -0.08 / -0.24 / -0.42 / -0.28 / -0.17 / -0.19 | -0.23 | 0/18
GFDLNEYGIS | VIYADGMRTVYADSVK | GNVAGTFDQ | 1.29 / -0.57 / 1.00 / -0.62 / 0.93 / -0.28 | 0.29 | 0/18
GFDLNEYGIS | VIYADGQRTAYVDSVK | GNEAGTFDV | 0.44 / 0.57 / 0.74 / 0.89 / 0.45 / 0.61 | 0.62 | 0/18
GFDLNEYGIS | VIYADGKRTFYADSVK | GEVAGTFDM | -0.34 / -0.38 / -0.87 / -0.62 / -0.21 / -0.11 | -0.42 | 0/18
GFDLNEYGIS | VIYADGMRTAYSDSVK | GNQAGTFDL | -0.07 / 0.09 / -0.18 / -0.34 / -0.34 / -0.25 | -0.18 | 1/18 (1.11)
GFNLDEYGIS | VIYADGMRTAYADDVK | GEVAGTFDV | -0.51 / -0.70 / -0.85 / -0.92 / -1.03 / -0.42 | -0.74 | 0/18
GFDLNEYGIS | VIYADGMRTAYTDSVK | GNTAGTFDV | -0.33 / -0.70 / -0.09 / -0.90 / -1.00 / 0.95 | -0.34 | 0/18
GFDLNEYGIS | VIYADGVRKAYADSVK | GNVAGTFDI | -1.37 / -0.69 / -0.48 / -1.15 / -1.60 / -1.25 | -1.09 | 1/18 (0.93)
GFDLNEYGIS | VIYADGMRTAYSDDVK | GSNAGTFDI | -0.26 / -0.08 / -0.36 / -0.61 / -0.85 / -0.51 | -0.45 | 0/18
GFDLNEYGIS | VIYADGMRTAYVDSVK | GNVAGTFDL | -0.53 / -0.73 / -0.44 / -0.82 / -0.60 / -0.67 | -0.63 | 0/18
GFDLNEYGIS | VIYADGQRTAYADKVK | GNQAGTFDV | -0.21 / -0.61 / -0.49 / -0.62 / -0.67 / -0.07 | -0.45 | 0/18
GFDLNEYGIS | VIYADGRRTAYADDVK | GEVAGTFDI | 0.43 / 1.22 / 0.77 / 0.38 / 0.61 / 0.73 | 0.69 | 0/18
GFDLNEYGIS | VIYADGMRKYYADSVK | GEVAGTFDV | -0.79 / -1.38 / -1.02 / -1.44 / -1.22 / -0.70 | -1.09 | 0/18
GFDLDEYGIS | VIYADGMRTAYADDVK | GENAGTFDV | -0.45 / -0.25 / -0.33 / -0.50 / -0.28 / -0.40 | -0.37 | 0/18
GFNLDEYGIS | VIYADGMRTAYSDSVK | GENAGTFDV | -0.44 / 0.32 / -1.08 / -0.54 / -0.75 / -0.48 | -0.49 | 0/18
GFDLNEYGIS | VIYADGMRTYYADNVK | GENAGTFDV | 0.22 / 0.28 / 0.45 / 0.60 / 0.19 / 0.16 | 0.32 | 0/18
GFDLNEYGIS | VIYADGMRTAYADSVK | GTNAGTFDT | -0.20 / -0.62 / 0.20 / -0.31 / -0.51 / -0.43 | -0.31 | 0/18
GFDLNEYGIS | VIYADGMRTAYADSVK | GNTAGTFDV | 0.02 / -0.30 / -0.36 / -0.90 / -0.35 / -0.46 | -0.39 | 0/18
GFDLNEYGIS | VIYADGMRTAYADAVK | GENAGTFDV | -0.43 / -0.28 / -0.53 / -0.05 / -0.48 / -0.05 | -0.30 | 0/18
GFDLDEYGIS | VIYADGKRTAYSDSVK | GNVAGTFDM | -0.30 / -0.51 / nd / -1.15 / -0.70 / -0.71 | -0.67 | 0/18
GFDLDEYGIS | VIYADGQRTYYADSVK | GENAGTFDV | nd / -0.47 / -1.28 / nd / nd / nd | -0.88 | 0/18
GFDLNEYGIS | VIYADGVRTAYSDSVK | GENAGTFDV | -0.31 / -0.37 / -0.37 / -0.52 / 0.05 / -0.23 | -0.29 | 0/18
GFDLDEYGIS | VIYADGQRTAYADSVK | GETAGTFDT | -0.10 / -0.35 / -0.20 / -0.07 / -0.32 / 0.30 | -0.12 | 2/18 (1.49)
GFDLNEYGIS | VIYADGLRTAYVDSVK | GENAGTFDV | -0.39 / -0.76 / -0.73 / -0.53 / -0.66 / -0.71 | -0.63 | 0/18
GFDLDEYGIS | VIYADGKRTAYADDVK | GETAGTFDV | 0.63 / -0.05 / 0.24 / -0.47 / -0.14 / 0.04 | 0.04 | 0/18
GFDLNEYGIS | VIYADGSRTAYADDVK | GEVAGTFDV | -0.28 / 0.07 / -0.61 / -0.50 / 0.12 / -0.09 | -0.21 | 0/18
GFDLNEYGIS | VIYADGVRTAYSDSVK | GNQAGTFDQ | 0.46 / 0.26 / 0.09 / 0.72 / 0.95 / 0.24 | 0.45 | 0/18
GFDLNEYGIS | VIYADGVRTAYSDSVK | GENAGTFDL | 0.30 / -0.28 / -0.57 / -0.42 / -0.03 / -0.22 | -0.20 | 0/18
GFDLNEYGIS | VIYADGVRTAYADSVK | GENAGTFDA | 0.61 / 1.45 / 0.87 / 1.06 / 1.68 / 1.21 | 1.15 | 0/18
GFDLNEYGIS | VIYADGVRTAYADDVK | GNVAGTFDV | -2.30 / -2.20 / -2.26 / -2.26 / -2.46 / -1.98 | -2.24 | 0/18
GFDLEDYGIS | VIYADGKRTAYADSVK | GQNAGTFDV | 0.54 / 0.32 / 1.45 / -0.05 / 0.08 / 0.23 | 0.43 | 0/18
GFDLDEYGIS | VIYADGQRTFYADSVK | GETAGTFDV | -0.65 / -1.63 / -1.56 / -1.20 / -1.84 / -0.53 | -1.24 | 0/18
GFDLDEYGIS | VIYADGRRTAYVDSVK | GEVAGTFDV | -0.49 / -0.46 / -0.65 / -0.57 / -0.76 / -0.66 | -0.60 | 2/18 (2.37)
GFDLDEYGIS | VIYADGVRTAYADSVK | GQNAGTFDL | 0.35 / 0.20 / -1.02 / -0.75 / -0.18 / -0.01 | -0.23 | 0/18
GFDLNEYGIS | VIYADGMRTAYSDSVK | GGNAGTFDQ | -0.30 / -0.31 / -0.11 / -0.33 / -0.11 / 0.08 | -0.18 | 1/18 (1.11)
GFDLDEYGIS | VIYADGMRTAYTDSVK | GEVAGTFDV | -0.12 / 0.09 / 0.49 / -0.06 / 0.03 / 0.18 | 0.10 | 0/18
GFDLNEYGIS | VIYADGRRTAYVDSVK | GENAGTFDV | -0.42 / 0.11 / -0.87 / -0.73 / -0.09 / -0.42 | -0.40 | 0/18

Repeated from above, the 6 best binders with a signal in all replicates:

{"CDR-H1": "GFDLNEYGIS", "CDR-H2": "VIYADGVRTAYADDVK", "CDR-H3": "GNVAGTFDV", "replicates, log10 nM": "-2.30 / -2.20 / -2.26 / -2.26 / -2.46 / -1.98", "mean log10 Kd (nM)": "-2.24", "signal with controls": "0/18"}
{"CDR-H1": "GFDLDEYGIS", "CDR-H2": "VIYADGQRTFYADSVK", "CDR-H3": "GETAGTFDV", "replicates, log10 nM": "-0.65 / -1.63 / -1.56 / -1.20 / -1.84 / -0.53", "mean log10 Kd (nM)": "-1.24", "signal with controls": "0/18"}
{"CDR-H1": "GFDLNEYGIS", "CDR-H2": "VIYADGMRKYYADSVK", "CDR-H3": "GEVAGTFDV", "replicates, log10 nM": "-0.79 / -1.38 / -1.02 / -1.44 / -1.22 / -0.70", "mean log10 Kd (nM)": "-1.09", "signal with controls": "0/18"}
{"CDR-H1": "GFDLNEYGIS", "CDR-H2": "VIYADGVRKAYADSVK", "CDR-H3": "GNVAGTFDI", "replicates, log10 nM": "-1.37 / -0.69 / -0.48 / -1.15 / -1.60 / -1.25", "mean log10 Kd (nM)": "-1.09", "signal with controls": "1/18 (0.93)"}
{"CDR-H1": "GFNLDEYGIS", "CDR-H2": "VIYADGMRTAYADDVK", "CDR-H3": "GEVAGTFDV", "replicates, log10 nM": "-0.51 / -0.70 / -0.85 / -0.92 / -1.03 / -0.42", "mean log10 Kd (nM)": "-0.74", "signal with controls": "0/18"}
{"CDR-H1": "GFDLNEYGIS", "CDR-H2": "VIYADGMRTAYVDSVK", "CDR-H3": "GNVAGTFDL", "replicates, log10 nM": "-0.53 / -0.73 / -0.44 / -0.82 / -0.60 / -0.67", "mean log10 Kd (nM)": "-0.63", "signal with controls": "0/18"}

In the paper, a design with two or fewer of six values counts as a poor binder.
Three control strains display no target. For all heavy chain designs, 1% of the pairings with them gave a signal, with a median of 2.08 and one signal in twenty below 0.84, so weak values seen in few replicates may be background. For each scFv, signals with the empty controls are counted beside the result, with their mean in brackets.
The range of this assay differs from that of the first round, and the authors advise against merging the two.